According to patent publication US20150165000A1, “COMPOSITION FOR THERMOSTABILIZATION OF HUMAN SERUM ALBUMIN AND METHOD OF PREPARING THERMALLY STABILIZED HUMAN SERUM ALBUMIN USING THE SAME” (Ewha University - Industry Collaboration Foundation, priority 2012, published 2015):

Legend:
[1] = molecular target: T1, human serum albumin (Homo sapiens, UniProt P02768); assay: Structural stability against thermal treatment: secondary structure composition from circular dichroism; type: physicochemical; details: albumin 1 mg/mL
T1 construct: the single supply source of human serum albumin is currently the blood of humans; purchased Sigma-Aldrich A3782
Method: The composition of the secondary structure of protein may be estimated using circular dichroism, and thus changes in structure of the thermally denatured protein may be measured.
Measurement of circular dichroism was performed three times under conditions of a data pitch of 0.2 nm, a band width of 1.0 nm, a response time of 4 sec, and a scanning speed of 50 nm/min using a quartz cuvette having a path length of 0.1 cm by use of Jasco J-715 spectropolarimeter. The composition of the secondary structure was assayed from the measured circular dichroism values using SELCON3 program contained in the Dicroprot program.

[2] = molecular target: T1, human serum albumin; assay: Thermal denaturation of human serum albumin solution: check of precipitation during heating; type: physicochemical; details: for precipitation check / endurable time duration of the prolonged processing / time after which precipitation began to form: albumin 50 mg/mL
Method: Thus, the present inventors estimated oleic acid affecting stability depending on the temperature. […] Specifically, while the temperature was maintained at 65° C., 70° C. and 75° C., whether the precipitation was formed due to denaturation of protein was checked at intervals of 30 min, 5 min and 3 min, respectively.
Thermostabilizing effects were evaluated at 70° C. using other C18 fatty acids including stearic acid, linoleic acid, α-linolenic acid and γ-linolenic acid, as well as oleic acid, in the same manner as in Example 6.1. for testing of stability against denaturation due to thermal treatment using oleic acid.
Thermostabilizing effects at 65° C. were evaluated using C16 fatty acids including palmitic acid and palmitoleic acid, as well as oleic acid as the C18 fatty acid, in the same manner as in Examples 6.1. and 6.2. for testing of stability against degeneration due to thermal treatment using various C18 fatty acids including oleic acid. The samples were warmed to 65° C. and observed at an interval of 5 min.
Thermostabilizing effects at 65° C. were evaluated using EPA (eicosapentaenoic acid) and DHA (docosahexanoic acid) as C20 and C22 fatty acids, as well as oleic acid as the C18 fatty acid, in the same manner as in Examples 6.1. to 6.3. for testing of stability against denaturation due to thermal treatment using various C16 and C18 fatty acids.

Substance	Turn (composition of the secondary structure) ([1]; heated at 60° C. for 10 hr)	Unordered (composition of the secondary structure) ([1]; heated at 60° C. for 10 hr)	poly(Pro)II (composition of the secondary structure) ([1]; heated at 60° C. for 10 hr)	α-Helix (composition of the secondary structure) ([1]; heated at 60° C. for 10 hr)	β-sheet (composition of the secondary structure) ([1]; heated at 60° C. for 10 hr)	Turn (composition of the secondary structure) ([1]; heated at 70° C. for 10 hr)	Unordered (composition of the secondary structure) ([1]; heated at 70° C. for 10 hr)	poly(Pro)II (composition of the secondary structure) ([1]; heated at 70° C. for 10 hr)	α-Helix (composition of the secondary structure) ([1]; heated at 70° C. for 10 hr)	β-sheet (composition of the secondary structure) ([1]; heated at 70° C. for 10 hr)	Turn (composition of the secondary structure) ([1]; heated at 80° C. for 10 hr)	Unordered (composition of the secondary structure) ([1]; heated at 80° C. for 10 hr)	poly(Pro)II (composition of the secondary structure) ([1]; heated at 80° C. for 10 hr)	α-Helix (composition of the secondary structure) ([1]; heated at 80° C. for 10 hr)	β-sheet (composition of the secondary structure) ([1]; heated at 80° C. for 10 hr)	other results
A1653 Albumin: A1653 albumin (Sigma), human serum albumin sample	0.105	0.311	0.042	0.481	0.072	0.144	0.369	0.055	0.330	0.124	0.149	0.390	0.054	0.270	0.127	–
Albumin (Control): fatty acid-free human serum albumin (A3782, Sigma-Aldrich) solution not processed with fatty acid	0.133	0.379	0.052	0.308	0.130	0.141	0.378	0.053	0.309	0.107	0.178	0.432	0.043	0.217	0.143	precipitation check ([2]; 65° C., 5 min, Example 6.3): ◯; precipitation check ([2]; 65° C., 5 min, Example 6.4): ◯; precipitation check ([2]; 65° C., 10 min, Example 6.3): ◯; precipitation check ([2]; 65° C., 10 min, Example 6.4): ◯; endurable time duration of the prolonged processing ([2]; 65° C.): 60 min; time after which precipitation began to form ([2]; 65° C., Example 6.1): 30 min; endurable time duration, log unit (log65° C.) ([2]; 65° C., log of minutes): 1.78; precipitation check ([2]; 70° C., 3 min, Example 6.2): ◯; precipitation check ([2]; 70° C., 5 min, Example 6.1): ◯; time after which precipitation began to form ([2]; 70° C., Example 6.1): 10 min; endurable time duration, log unit (log70° C.) ([2]; 70° C., log of minutes): 1.18; precipitation check ([2]; 75° C., 3 min, Example 6.1): ◯; endurable time duration of the prolonged processing ([2]; 75° C.): 9 min; endurable time duration, log unit (log75° C.) ([2]; 75° C., log of minutes): 0.95
